In patent US11596639B2, “Substituted indole Mcl-1 inhibitors” (Vanderbilt University, priority 2016, dated 2023) one finds Ki data, which are given here for two molecules.

The chains behind the UniProt entries cited, without tags or fusion partners. Residues count along the entry.
UniProt Q07820, 172-327: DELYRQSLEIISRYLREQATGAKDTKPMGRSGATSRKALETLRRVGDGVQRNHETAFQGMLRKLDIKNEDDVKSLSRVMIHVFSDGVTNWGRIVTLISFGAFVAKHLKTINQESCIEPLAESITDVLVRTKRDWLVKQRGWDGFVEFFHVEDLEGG

Each structure is given as a SMILES string. Where only a bound is given, the exact number is not on record here.

The assay has as its target Mcl-1 (Homo sapiens (Human), UniProt Q07820). As to the kind of experiment: TR-FRET binding assay, FITC-Bak peptide and MBP-tagged Mcl-1. As to conditions: read-out: Ki for Inhibition of Mcl-1 by TR-FRET assay. (In general: In TR-FRET formats the signal depends on donor and acceptor labels being close together.)

In the case of `COc1ccc(N2C[C@@H](C)n3c(c(CCCOc4cc(C)c(Cl)c(C)c4)c4ccc(Cl)c(-c5c(C)nn(C)c5C)c43)C2=O)c2c1c(C(=O)O)cn2Cc1cccc(C)n1` [Example 621, (R)-7-(7-chloro-10-(3-(4-chloro-3,5-dimethylphenoxy)propyl)-4-methyl-1-oxo-6-(1,3,5-trimethyl-1H-pyrazol-4-yl)-3,4-dihydropyrazino[1,2-a]indol-2(1H)-yl)-4-methoxy-1-((6-methylpyridin-2-yl)methyl)-1H-indole-3-carboxylic add], the Ki (usually a measure of affinity in units of concentration, obtained from inhibition or displacement) is under 0.2 nM. As for `COc1ccc(N2C[C@@H](C)n3c(c(CCCOc4cc(C)c(Cl)c(C)c4)c4ccc(Cl)c(-c5c(C)nn(C)c5C)c43)C2=O)c2c1c(C(=O)O)cn2Cc1cccc(C)n1` [Example 622, (R)-7-(7-chloro-10-(3-(4-chloro-3,5-dimethylphenoxy)propyl)-4-methyl-1-oxo-6-(1,3,5-trimethyl-1H-pyrazol-4-yl)-3,4-dihydropyrazino[1,2-a]indol-2(1H)-yl)-4-methoxy-1-((6-methylpyridin-2-yl)methyl)-1H-indole-3-carboxylic acid], the figure is 0.76 nM.
